Laboratory results published in EP4843994A1, “NOVEL PEPTIDE HAVING MUSCLE FORMATION-PROMOTING ACTIVITY, ANTI-OBESITY ACTIVITY AND ANTI-DIABETIC ACTIVITY AND USES THEREOF” (dated 2026).

What was measured:
[1] = tested on: 3T3-L1 cells; assay: Expression of fatty acid oxidation-related genes in insulin resistance-induced adipocytes (RT-PCR); conditions: 3T3-L1 adipocytes, 350 µM oleic acid (insulin resistance environment), peptide 5 µM, 50 µM, 48 hours
Experimental: 3T3-L1 cells (preadipocytes, American Type Culture Collection) were cultured in DMEM medium containing 2% BCS (Bovine Calf Serum) (Welgene, Korea). To differentiate 3T3-L1 cells into adipocytes, cells were seeded into 12-well culture plates at a concentration of 1 x 10^5 cells/well, and when the cells became confluent (Day=2), the medium was replaced once more and cultured for an additional 48 hours. After 48 hours (Day=0), the culture medium was replaced with DMEM medium containing 10% FBS, 1% P/S, 1 µg/ml insulin (Sigma, USA), 0.5 mM isobutylmethylxanthine (IBMX) (Sigma, USA), and 1 µM Dexamethasone (Sigma, USA), and cultured. After 2 days (Day=2), the medium was replaced with DMEM medium containing 10% FBS, 1% P/S, and 1 µg/ml insulin, and cultured. After 3 days (Day=5), the medium was replaced with one containing only 10% FBS and 1% P/S, and an insulin resistance environment was induced by treating with 350 µM oleic acid (Sigma, St. Louis, MO, USA) for 24 hours. After 24 hours of induction, the DMEM medium (10% FBS, 1% BSA) supplemented with 350 µM oleic acid (Sigma, St. Louis, MO, USA) and peptides (5 µM, 50 µM) was replaced, and the cells were cultured for 48 hours. After culture, the cells were harvested, and RNA was extracted using Trizol (Thermo Fisher Scientific, USA). […]

[2] = tested on: 3T3-L1 cells; assay: Expression of insulin resistance and sensitivity related proteins in oleic acid-treated adipocytes (Western blot); conditions: 3T3-L1 adipocytes, 350 µM oleic acid, peptide 5 µM, 50 µM, 48 hours
Experimental: 3T3-L1 cells (preadipocytes, American Type Culture Collection) were cultured in DMEM medium comprising 2% BCS (Bovine Calf Serum) (Welgene, Korea). To differentiate 3T3-L1 cells into adipocytes, cells were seeded into 12-well culture plates at a concentration of 1 x 10^5 cells/well, and when the cells became confluent (Day=2), the medium was replaced once more and cultured for an additional 48 hours. After 48 hours (Day=0), the culture medium was replaced with DMEM medium comprising 10% FBS, 1% P/S, 1 µg/ml insulin (Sigma, USA), 0.5 mM isobutylmethylxanthine (IBMX) (Sigma, USA) and 1 µM Dexamethasone (Sigma, USA) and cultured. After 2 days (Day=2), the medium was replaced with DMEM comprising 10% FBS, 1% P/S, and 1 µg/ml insulin, and cultured. After 3 days (Day=5), the medium was replaced with one comprising only 10% FBS and 1% P/S, and an insulin resistance environment was induced by adding 350 µM oleic acid (Sigma, St. Louis, MO, USA) for 24 hours. After 24 hours of induction, the medium was replaced with DMEM medium (10% FBS, 1% BSA) supplemented with 350 µM oleic acid (Sigma, St. Louis, MO, USA) and peptides (5 µM, 50 µM), and cultured for 48 hours. After culture, lysis buffer was added to lyse the cells, and then the proteins were obtained by centrifugation at 12,000 rpm and 4°C for 30 minutes. The obtained proteins were then quantified using a BCA kit. […]

[3] = tested on: 3T3-L1 cells; assay: Expression of adipogenesis and lipolysis related proteins in insulin resistance-induced adipocytes (Western blot); conditions: 3T3-L1 adipocytes, 350 µM oleic acid (insulin resistance environment), peptide 5 µM, 50 µM, 48 hours
Experimental: 3T3-L1 cells (preadipocytes, American Type Culture Collection) were cultured in DMEM medium containing 2% BCS (Bovine Calf Serum) (Welgene, Korea). To differentiate 3T3-L1 cells into adipocytes, cells were seeded into 12-well culture plates at a concentration of 1 x 10^5 cells/well, and when the cells became confluent (Day=2), the medium was replaced once more and cultured for an additional 48 hours. After 48 hours (Day=0), the culture medium was replaced with DMEM medium containing 10% FBS, 1% P/S, 1 µg/ml insulin (Sigma, USA), 0.5 mM isobutylmethylxanthine (IBMX) (Sigma, USA), and 1 µM Dexamethasone (Sigma, USA), and cultured. After 2 days (Day=2), the medium was replaced with DMEM medium containing 10% FBS, 1% P/S, and 1 µg/ml insulin, and cultured. After 3 days (Day=5), the medium was replaced with one containing only 10% FBS and 1% P/S, and an insulin resistance environment was induced by treating with 350 µM oleic acid (Sigma, St. Louis, MO, USA) for 24 hours. After 24 hours of induction, the DMEM medium (10% FBS, 1% BSA) supplemented with 350 µM oleic acid (Sigma, St. Louis, MO, USA) and peptides (5 µM, 50 µM) were replaced, and the cells were cultured for 48 hours. After culture, lysis buffer was added to lyse the cells, and the proteins were obtained by centrifugation at 12,000 rpm and 4°C for 30 minutes. The obtained proteins were then quantified using a BCA kit. […]

Structure (SMILES): C[C@@H](O)[C@H](NC(=O)CNC(=O)[C@@H](N)Cc1c[nH]cn1)C(=O)N[C@@H](Cc1ccc(O)cc1)C(=O)O
- expression of CPT1 (gene) [1]: increased again
- expression of PGC1α (gene) [1]: increased again
- expression level of pAMPKα [2]: increased again
- expression level of pIRS(Ser302) [2]: decreased again
- expression level of FAS protein [3]: decreased again
- expression level of PLIN protein [3]: increased again
